What is called inhibition is the drop in the measured response relative to a control, in per cent.

104 molecules from PubChem BioAssay AID602250 (The Scripps Research Institute Molecular Screening Center, 2012) can be followed below.

The entries are a selection whose mix differs from that of the whole data set. Some salts or complexes appear as unconnected parts, following the source record. The source made the active and inactive calls.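 Rule for the calls: active = inhibition above a per-plate cutoff, the plate's mean sample inhibition plus 3 SD (cut at about 24% in these data); inactive = the rest.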

This test in a line: calcium signal blockers in parental CHO-K1 cells – cell-based, Fluo-8 calcium fluorescence, full deck, 1536-well, counter-screen for M1 antagonist project, primary screen (AID 602250).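 Note: 0% = DMSO plus EC80 ATP and 100% = DMSO alone without ATP.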 The conditions noted are these: ATP-induced calcium, Fluo-8 fluorescence, at 3 µM, stronger effect = higher value. (In general: Counterscreens check selectivity or assay interference.)
Take `CCOC(=O)C(CC)C1=NC(C)(C)Cc2ccccc21.O=[N+]([O-])c1cc([N+](=O)[O-])c(O)c([N+](=O)[O-])c1` (centres undefined): the inhibition was inactive: -3.87%.
For `O=[N+]([O-])c1cc([N+](=O)[O-])c(Nc2nnnn2CCO)c([N+](=O)[O-])c1` the value was inactive: -7.14%; for `CC1=C2N=C(C=C3N=C(C(C)=C4[N-][C@@](C)([C@@H]5N=C1[C@](C)(CCC(=O)NC[C@@H](C)OP(=O)([O-])O[C@H]1[C@@H](O)[C@@H](n6cnc7cc(C)c(C)cc76)O[C@@H]1CO)[C@H]5CC(N)=O)[C@@](C)(CC(N)=O)[C@@H]4CCC(N)=O)[C@@](C)(CC(N)=O)[C@@H]3CCC(N)=O)C(C)(C)[C@@H]2CCC(N)=O.[C-]#N.[Co+3]`, inactive: -3.28%; for `CN(C)C1(CNC(=O)c2ccc(S(C)(=O)=O)cc2)CCCCC1`, inactive: -10.3%.
Under `COc1ccc(-c2ccccn2)cc1.O=[N+]([O-])c1cc([N+](=O)[O-])c(O)c([N+](=O)[O-])c1` stands inactive: -19.1%; under `CP(=O)(Nc1ccc(SC(F)(F)F)cc1)Oc1ccccc1` (centres undefined), inactive: -2.3%.
Under `CCCOc1ccc(NP(C)(=O)Oc2ccc(Cl)cc2)cc1` (centres undefined) stands inactive: -4.6%; under `CN1CCCCC1COC(=O)C1(O)c2ccccc2CCc2ccccc21` (centres undefined), inactive: -8.13%.
On to `COc1ccccc1OP(C)(=O)Nc1c(C)cccc1C` (centres undefined), for which the inhibition is inactive: -16%.
Under `CN(Cc1cccnc1)C(=O)COc1ccc(Cl)c(Cl)c1.O=[N+]([O-])c1cc([N+](=O)[O-])c(O)c([N+](=O)[O-])c1` stands inactive: -7.19%.
Under `O=[N+]([O-])c1cc([N+](=O)[O-])c(-n2nnc3ccccc32)c([N+](=O)[O-])c1` stands inactive: 1.25%; under `Cc1nc2ccc3ccccc3c2s1.O=[N+]([O-])c1cc([N+](=O)[O-])c(O)c([N+](=O)[O-])c1`, inactive: -11.9%.
`O=[N+]([O-])c1cc([N+](=O)[O-])c(-c2cnn(-c3ccccc3)c2)c([N+](=O)[O-])c1`: the inhibition was inactive: 6.14%.
Under `CCOC(=O)c1ccc(NP(C)(=O)Oc2cc(C)cc(C)c2)cc1` (centres undefined) stands inactive: 17.4%; under `Cc1cc(C)cc(OP(C)(=O)Nc2ccc(C)cc2C)c1` (centres undefined), inactive: -15.6%; under `COc1ccccc1OP(C)(=O)Nc1cccc(Br)c1` (centres undefined), inactive: -10.2%.
Under `COc1cc(C(=O)NCC2(N3CCOCC3)CCCCC2)cc(Cl)c1OC(C)C` stands inactive: 5.14%.
For `Cc1ccc(C)c(NP(C)(=O)Oc2ccccc2)c1` (centres undefined) the value was inactive: 2.57%.
For `CP(=O)(Nc1cccc(Br)c1)Oc1ccccc1` (centres undefined), the inhibition was inactive: -17.4%.
For `Cc1cc(C)cc(OP(C)(=O)Nc2ccccn2)c1` (centres undefined) the value was inactive: 5.83%; for `O=C(O)c1cccc(Nc2c([N+](=O)[O-])cc([N+](=O)[O-])cc2[N+](=O)[O-])c1`, inactive: -16.4%.
As to `CC1=NCCc2c1[nH]c1ccccc21.O=[N+]([O-])c1cc([N+](=O)[O-])c(O)c([N+](=O)[O-])c1`, the inhibition was inactive: -12.8%.
Turning to `O=[N+]([O-])c1ccc2c(c1)C=Nc1ccccc1O2`, the inhibition was inactive: 15%.
Under `Cc1cccc(C)c1OP(C)(N)=O` (centres undefined) stands inactive: -0.64%.
As to `CC(C)(C)c1ccc(OP(C)(=O)Nc2ccc(SC(F)(F)F)cc2)cc1` (centres undefined), the inhibition was inactive: -4.2%.
For `COc1cc(C(=O)NCC2(N3CCOCC3)CCCCC2)ccc1OCC(C)C` the value was inactive: -8.18%.
Under `O=[N+]([O-])c1cc([N+](=O)[O-])c(Nc2cccnc2)c([N+](=O)[O-])c1` stands inactive: 3.2%; under `Cc1cc(C)cc(OP(C)(N)=O)c1` (centres undefined), inactive: -4.81%; under `COc1ccc(OP(C)(=O)Nc2cccc(F)c2)cc1` (centres undefined), inactive: 2.87%.
Under `COc1ccccc1OP(C)(=O)Nc1cc(Cl)ccc1C` (centres undefined) stands inactive: -6.88%.
Regarding `Cc1ccc(NP(C)(=O)Oc2ccccc2)c(C)c1` (centres undefined), the inhibition was inactive: -16.6%.
Under `COc1ccccc1OP(C)(=O)Nc1ccc(C)cc1` (centres undefined) stands inactive: -8.38%; under `CCOC(=O)c1ccc(NP(C)(=O)Oc2ccccc2)cc1` (centres undefined), inactive: -6.96%.
For `CCN(CC)CCCOC(=O)C(O)(c1ccccc1)c1ccccc1` the value was inactive: 5.42%; for `COc1ccccc1-c1ccccn1.O=[N+]([O-])c1cc([N+](=O)[O-])c(O)c([N+](=O)[O-])c1`, inactive: -3.61%; for `Cc1cc(C)cc(OP(C)(=O)Nc2ccc(SC(F)(F)F)cc2)c1` (centres undefined), inactive: 5.61%.
As for `CCc1ccc(OP(C)(=O)N2CCN(c3ccc([N+](=O)[O-])cc3)CC2)cc1` (centres undefined), the inhibition was inactive: -7.54%.
For the molecule `CP(=O)(NC(=O)Nc1ccccc1)Oc1ccccc1` (centres undefined), the inhibition is inactive: 12.9%.
For `CP(=O)(Oc1ccccc1)OC(c1ccccc1)C(F)(F)F` (centres undefined) the value was inactive: 0.3%; for `CP(=O)(Nc1ccc(SC(F)(F)F)cc1)Oc1ccc(Cl)cc1` (centres undefined), inactive: 0.12%.
For `Cc1ccc(Nc2c([N+](=O)[O-])cc([N+](=O)[O-])cc2[N+](=O)[O-])cc1` the value was inactive: 0.08%; for `Cc1cccc(C)c1OP(C)(=O)Nc1ccc(SC(F)(F)F)cc1` (centres undefined), inactive: -2.96%; for `CP(=O)(Nc1ccccn1)Oc1ccc(Cl)cc1` (centres undefined), inactive: -12.2%.
For `O=[N+]([O-])c1cc([N+](=O)[O-])c(O)c([N+](=O)[O-])c1.c1ccc(Oc2ccncc2)cc1` the value was inactive: -4.27%; for `CCOC(=O)c1ccc(NP(C)(=O)Oc2ccc(OC)cc2)cc1` (centres undefined), inactive: -2.52%; for `CCOP(C)(=S)SCC(=O)NC(C)C(=O)O` (centres undefined), inactive: -9.58%.
With `CCCCOc1ccc(C(=O)NCC2(N3CCCCC3)CCCCC2)cc1OC`, the inhibition is inactive: -15.8%.
Under `CP(=O)(Nc1ccccc1Br)Oc1ccccc1` (centres undefined) stands inactive: -7.19%; under `COc1ccccc1OP(C)(=O)Nc1ccccc1` (centres undefined), inactive: 4.04%; under `CP(=S)(Nn1cnnc1)Oc1ccccc1` (centres undefined), inactive: -9.36%.
Regarding `CCOC(=O)c1ccc(NP(C)(=O)Oc2ccc(Cl)cc2)cc1` (centres undefined), the inhibition is inactive: -6.47%.
Consider `CP(=O)(OC12CC3CC(CC(C3)C1)C2)OC12CC3CC(CC(C3)C1)C2`, for which the inhibition is inactive: -0.43%.
As for `O=C(OCCCN1CCCC1)C(O)(c1ccccc1)C1CCCCC1` (centres undefined), the inhibition was inactive: -2.38%.
Under `COc1ccccc1OP(C)(=O)Nc1c(C)n(C)n(-c2ccccc2)c1=O` (centres undefined) stands inactive: -8.95%; under `CCc1ccc(OP(C)(=O)Nc2cccnc2)cc1` (centres undefined), inactive: -5.74%.
Under `CP(=O)(Oc1ccccc1)N1CCOC1=O` (centres undefined) stands inactive: -14.2%.
For `COc1ccc(OP(C)(=O)Nc2ccc(Br)cc2)cc1` (centres undefined) the value was inactive: -0.01%; for `CCN(CC)CC(O)COC(=O)C(O)(c1ccccc1)C1CCCCC1` (centres undefined), inactive: -17.4%.
For the molecule `CN(C)C(=O)c1c([N+](=O)[O-])cc([N+](=O)[O-])cc1[N+](=O)[O-]`, the inhibition was inactive: -11.8%.
With `CC(C)(C)c1ccc(OP(C)(=O)O)cc1`, the inhibition was inactive: -3.56%.
Under `COc1ccccc1OP(C)(=O)Nc1ccccc1Br` (centres undefined) stands inactive: -3.95%; under `CP(=O)(Nc1ccc(Cl)cc1)Oc1ccc(F)cc1` (centres undefined), inactive: -15.4%; under `COc1ccc(OP(C)(=O)Nc2ccccn2)cc1` (centres undefined), inactive: -22.5%.
Under `CN(C)CCOC(=O)C(O)(c1ccccc1)C1CCCC1` (centres undefined) stands inactive: -5.07%; under `COc1ccccc1OP(C)(=O)Nc1ccc(Br)cc1` (centres undefined), inactive: -14.2%; under `COc1ccccc1OP(C)(=O)Nc1ccc(C)cc1C` (centres undefined), inactive: 4.25%.
Under `CP(=O)(Nc1ccccn1)Oc1ccccc1` (centres undefined) stands inactive: -5.53%; under `CCc1ccc(OP(C)(=O)O)cc1`, inactive: 15%; under `O=[N+]([O-])c1cc([N+](=O)[O-])c(Nc2ccccn2)c([N+](=O)[O-])c1`, inactive: -10.6%.
Turning to `Cc1c(NP(C)(=O)Oc2ccc(C(C)C)cc2)c(=O)n(-c2ccccc2)n1C` (centres undefined), the inhibition is inactive: -9.2%.
Consider `COc1ccccc1OP(C)(=O)Nc1ccc(C)c(C)c1` (centres undefined), for which the inhibition is inactive: 9.08%.
Under `COc1ccc(OP(C)(=O)Nc2ccccc2Br)cc1` (centres undefined) stands inactive: -16.4%; under `Cc1cc(C)cc(OP(C)(=O)Nc2cccc(C(F)(F)F)c2)c1` (centres undefined), inactive: -5.16%.
Under `O=C1C(O)=C([N+](=O)[O-])C(=O)C(O)=C1[N+](=O)[O-]` stands inactive: -12.5%; under `CP(=O)(OCCOc1ccccc1)OCCOc1ccccc1`, inactive: -7.66%; under `CCCCCCCCCCCCCCCC1C[N+](C)(C)CCOP(C)(=O)O1` (centres undefined), inactive: -16.5%.
Regarding `CP(=O)(Nc1ccc(Cl)cc1Cl)Oc1ccccc1` (centres undefined), the inhibition was inactive: -13.2%.
Take `CCOC(=O)c1ccc(NP(C)(=O)Oc2ccc(F)cc2)cc1` (centres undefined): the inhibition is inactive: -7.9%.
As for `COc1ccc(OP(C)(=O)Nc2ccc(SC(F)(F)F)cc2)cc1` (centres undefined), the inhibition is inactive: -12%.
For `CCN(CC)CCCNc1ccccc1[N+](=O)[O-].O=[N+]([O-])c1cc([N+](=O)[O-])c(O)c([N+](=O)[O-])c1` the value was inactive: -11.9%.
Under `CP(=O)(Nc1ccccc1)Oc1ccc(F)cc1` (centres undefined) stands inactive: -29.3%; under `CCCCCOc1ccc(NP(C)(=O)Oc2ccc(Cl)cc2Cl)cc1` (centres undefined), inactive: -3.17%; under `O=[N+]([O-])c1cc([N+](=O)[O-])c(OC2CCCCC2O)c([N+](=O)[O-])c1` (centres undefined), inactive: -6.3%.
Regarding `Cc1c([N+](=O)[O-])cc([N+](=O)[O-])c(Br)c1[N+](=O)[O-]`, the inhibition is inactive: -13.1%.
Under `CCN(CC)CCCOC(=O)C(O)(c1ccccc1)C1CCCCC1` (centres undefined) stands inactive: -8.48%; under `CP(=O)(Nc1ccccc1F)Oc1ccccc1` (centres undefined), inactive: -22.3%; under `CC(C)c1ccc(OP(C)(=O)Nc2ccc(SC(F)(F)F)cc2)cc1` (centres undefined), inactive: -2.4%.
With `O=[N+]([O-])c1cc([N+](=O)[O-])c(Nc2ccc(Cl)cc2)c([N+](=O)[O-])c1`, the inhibition was active: 23.9%.
For `COc1ccc2c(c1O)-c1c(O)c(OC)cc3c1[C@H](C2)[N+](C)(C)CC3.O=[N+]([O-])c1cc([N+](=O)[O-])c([O-])c([N+](=O)[O-])c1[O-]` the value was inactive: -12.2%; for `O=C(OC1CN2CCC1CC2)c1ccc([N+](=O)[O-])cc1` (centres undefined), inactive: -16.1%; for `O=C(OCCN1CCN(CCOCc2ccccc2)CC1)C(O)(c1ccccc1)c1ccccc1`, inactive: -6.41%.
As for `CCOP(C)(=S)SCC(=O)NC(C)(CC)C(=O)O` (centres undefined), the inhibition is inactive: -8.62%.
For `CP(=O)(Nc1ccc(SC(F)(F)F)cc1)Oc1ccc(F)cc1` (centres undefined) the value was inactive: -15%.
On to `Cc1ccccc1NP(C)(=O)Nc1ccccc1C`, for which the inhibition is inactive: 0.27%.
For `O=[N+]([O-])c1cc([N+](=O)[O-])c(C(F)(F)F)c([N+](=O)[O-])c1O` the value was inactive: -12.6%; for `CP(=O)(Nc1ccc2c(c1)OCCO2)Oc1ccccc1` (centres undefined), inactive: -8.02%; for `CN(C)CCOC(=O)C(O)(c1ccccc1)C1CCCCC1` (centres undefined), inactive: 2.41%.
Under `COc1ccc(NP(C)(=O)Oc2ccccc2OC)cc1` (centres undefined) stands inactive: 4.26%; under `COc1ccc(OP(C)(=O)Nc2cccc(Br)c2)cc1` (centres undefined), inactive: 23.3%; under `CN(C)C1(CNC(=O)c2ccc(Cl)c(S(N)(=O)=O)c2)CCCCC1`, inactive: -11.5%.
Under `Cc1c(C(c2ccc3c(c2)OCO3)c2c(C)n(C)n(-c3ccccc3)c2=O)c(=O)n(-c2ccccc2)n1C.O=[N+]([O-])c1cc([N+](=O)[O-])c(O)c([N+](=O)[O-])c1` stands inactive: -22.8%.
In the case of `O=[N+]([O-])c1ccc(OP2(=O)COCCO2)cc1` (centres undefined), the inhibition was inactive: -24.8%.
With `Cc1cc(-c2cccc3ccccc23)c(C)cn1.O=[N+]([O-])c1cc([N+](=O)[O-])c(O)c([N+](=O)[O-])c1`, the inhibition is inactive: -9.52%.
Under `O=[N+]([O-])c1cc([N+](=O)[O-])c(NCC2CCS(=O)(=O)C2)c([N+](=O)[O-])c1` (centres undefined) stands inactive: -12.6%.
